Reference: US20230348453A1, “HALOGENATED-HETEROARYL AND OTHER HETEROCYCLIC KINASE INHIBITORS, AND USES THEREOF” (iOmx Therapeutics AG, priority 2020, published 2023)
Values joined by “and” are separate entries in the source; they are usually repeats but may differ in a detail not shown here. Equal values may be shown once. Read-outs that look alike come from different tables or passages of the source.

The chains behind the UniProt entries cited, without tags or fusion partners. Residues count along the entry.
UniProt P36888, 27-993 limits assumed: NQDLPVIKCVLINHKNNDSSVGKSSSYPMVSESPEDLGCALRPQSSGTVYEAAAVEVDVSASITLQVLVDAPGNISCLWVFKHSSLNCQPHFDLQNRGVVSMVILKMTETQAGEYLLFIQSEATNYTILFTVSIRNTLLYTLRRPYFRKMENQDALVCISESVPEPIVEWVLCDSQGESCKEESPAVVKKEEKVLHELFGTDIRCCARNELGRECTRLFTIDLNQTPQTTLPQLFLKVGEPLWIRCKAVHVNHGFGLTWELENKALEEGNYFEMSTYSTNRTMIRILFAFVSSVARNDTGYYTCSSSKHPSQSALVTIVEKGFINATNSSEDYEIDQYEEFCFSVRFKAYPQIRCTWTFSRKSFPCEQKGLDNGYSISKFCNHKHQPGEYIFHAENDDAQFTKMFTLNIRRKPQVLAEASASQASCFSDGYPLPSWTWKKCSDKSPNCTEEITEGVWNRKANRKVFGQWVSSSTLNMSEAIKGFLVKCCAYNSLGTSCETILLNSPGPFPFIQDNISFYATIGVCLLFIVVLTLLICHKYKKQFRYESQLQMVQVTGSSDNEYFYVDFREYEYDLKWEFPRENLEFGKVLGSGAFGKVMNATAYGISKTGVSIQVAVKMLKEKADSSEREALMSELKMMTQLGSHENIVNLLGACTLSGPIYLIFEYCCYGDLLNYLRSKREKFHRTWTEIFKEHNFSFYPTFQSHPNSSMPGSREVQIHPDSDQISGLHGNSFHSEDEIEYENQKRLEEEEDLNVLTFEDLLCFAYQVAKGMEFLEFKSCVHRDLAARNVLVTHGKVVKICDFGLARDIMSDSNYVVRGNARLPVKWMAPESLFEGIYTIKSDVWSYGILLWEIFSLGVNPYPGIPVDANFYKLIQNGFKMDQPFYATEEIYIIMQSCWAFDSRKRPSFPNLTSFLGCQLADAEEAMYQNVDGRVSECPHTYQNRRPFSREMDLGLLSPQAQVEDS
UniProt P10721, 26-976 limits assumed: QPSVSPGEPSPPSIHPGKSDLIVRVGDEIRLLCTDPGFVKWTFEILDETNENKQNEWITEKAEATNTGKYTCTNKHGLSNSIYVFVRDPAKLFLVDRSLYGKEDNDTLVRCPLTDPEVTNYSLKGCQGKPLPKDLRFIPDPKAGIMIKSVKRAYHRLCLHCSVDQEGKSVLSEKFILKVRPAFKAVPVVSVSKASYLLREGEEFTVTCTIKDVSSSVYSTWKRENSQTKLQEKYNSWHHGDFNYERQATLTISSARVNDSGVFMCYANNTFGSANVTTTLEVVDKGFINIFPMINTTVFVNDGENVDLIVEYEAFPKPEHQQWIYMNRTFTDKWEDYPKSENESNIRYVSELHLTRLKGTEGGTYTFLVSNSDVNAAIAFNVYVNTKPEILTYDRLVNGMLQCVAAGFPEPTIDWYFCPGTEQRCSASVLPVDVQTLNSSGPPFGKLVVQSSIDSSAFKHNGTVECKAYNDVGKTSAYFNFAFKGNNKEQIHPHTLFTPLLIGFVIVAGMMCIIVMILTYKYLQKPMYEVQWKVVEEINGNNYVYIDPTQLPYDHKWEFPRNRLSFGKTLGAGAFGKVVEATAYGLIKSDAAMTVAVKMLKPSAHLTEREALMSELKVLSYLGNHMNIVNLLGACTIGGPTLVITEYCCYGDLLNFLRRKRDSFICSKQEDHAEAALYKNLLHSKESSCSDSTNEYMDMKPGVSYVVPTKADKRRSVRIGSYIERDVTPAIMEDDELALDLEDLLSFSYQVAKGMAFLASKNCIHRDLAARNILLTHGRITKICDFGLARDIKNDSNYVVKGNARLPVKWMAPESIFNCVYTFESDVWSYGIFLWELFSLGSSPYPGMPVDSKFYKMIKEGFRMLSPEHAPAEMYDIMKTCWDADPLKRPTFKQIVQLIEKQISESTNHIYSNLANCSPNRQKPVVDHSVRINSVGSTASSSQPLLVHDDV
UniProt P07949, 29-1114 limits assumed: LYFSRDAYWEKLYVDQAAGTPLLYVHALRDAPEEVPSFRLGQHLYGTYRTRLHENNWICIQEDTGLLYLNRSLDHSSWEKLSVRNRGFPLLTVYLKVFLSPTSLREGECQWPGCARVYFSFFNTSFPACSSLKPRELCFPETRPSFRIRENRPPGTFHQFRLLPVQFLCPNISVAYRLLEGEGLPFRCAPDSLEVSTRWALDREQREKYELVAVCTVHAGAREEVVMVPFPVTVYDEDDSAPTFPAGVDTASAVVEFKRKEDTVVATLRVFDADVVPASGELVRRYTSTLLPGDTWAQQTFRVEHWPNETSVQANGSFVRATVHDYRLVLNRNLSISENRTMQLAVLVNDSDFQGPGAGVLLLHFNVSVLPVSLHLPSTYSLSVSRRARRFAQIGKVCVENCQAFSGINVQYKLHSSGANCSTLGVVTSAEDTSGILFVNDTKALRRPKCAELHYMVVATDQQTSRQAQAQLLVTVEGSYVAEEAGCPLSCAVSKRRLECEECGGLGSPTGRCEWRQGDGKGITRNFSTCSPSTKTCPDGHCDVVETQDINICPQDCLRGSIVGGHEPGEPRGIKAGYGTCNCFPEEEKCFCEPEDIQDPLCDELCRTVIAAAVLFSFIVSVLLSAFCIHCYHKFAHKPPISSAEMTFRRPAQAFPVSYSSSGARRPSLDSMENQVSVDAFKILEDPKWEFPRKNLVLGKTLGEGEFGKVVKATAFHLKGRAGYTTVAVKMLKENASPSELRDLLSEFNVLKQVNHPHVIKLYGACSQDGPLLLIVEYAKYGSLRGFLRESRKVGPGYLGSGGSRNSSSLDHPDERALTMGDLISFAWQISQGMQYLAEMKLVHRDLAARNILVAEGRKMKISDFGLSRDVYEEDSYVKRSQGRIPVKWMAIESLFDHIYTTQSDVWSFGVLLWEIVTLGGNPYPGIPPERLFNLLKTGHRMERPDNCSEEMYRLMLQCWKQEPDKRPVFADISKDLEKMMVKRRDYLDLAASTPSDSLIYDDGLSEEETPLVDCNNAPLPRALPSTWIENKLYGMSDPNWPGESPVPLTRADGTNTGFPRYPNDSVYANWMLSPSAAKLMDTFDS
UniProt P29320, 21-983 limits assumed: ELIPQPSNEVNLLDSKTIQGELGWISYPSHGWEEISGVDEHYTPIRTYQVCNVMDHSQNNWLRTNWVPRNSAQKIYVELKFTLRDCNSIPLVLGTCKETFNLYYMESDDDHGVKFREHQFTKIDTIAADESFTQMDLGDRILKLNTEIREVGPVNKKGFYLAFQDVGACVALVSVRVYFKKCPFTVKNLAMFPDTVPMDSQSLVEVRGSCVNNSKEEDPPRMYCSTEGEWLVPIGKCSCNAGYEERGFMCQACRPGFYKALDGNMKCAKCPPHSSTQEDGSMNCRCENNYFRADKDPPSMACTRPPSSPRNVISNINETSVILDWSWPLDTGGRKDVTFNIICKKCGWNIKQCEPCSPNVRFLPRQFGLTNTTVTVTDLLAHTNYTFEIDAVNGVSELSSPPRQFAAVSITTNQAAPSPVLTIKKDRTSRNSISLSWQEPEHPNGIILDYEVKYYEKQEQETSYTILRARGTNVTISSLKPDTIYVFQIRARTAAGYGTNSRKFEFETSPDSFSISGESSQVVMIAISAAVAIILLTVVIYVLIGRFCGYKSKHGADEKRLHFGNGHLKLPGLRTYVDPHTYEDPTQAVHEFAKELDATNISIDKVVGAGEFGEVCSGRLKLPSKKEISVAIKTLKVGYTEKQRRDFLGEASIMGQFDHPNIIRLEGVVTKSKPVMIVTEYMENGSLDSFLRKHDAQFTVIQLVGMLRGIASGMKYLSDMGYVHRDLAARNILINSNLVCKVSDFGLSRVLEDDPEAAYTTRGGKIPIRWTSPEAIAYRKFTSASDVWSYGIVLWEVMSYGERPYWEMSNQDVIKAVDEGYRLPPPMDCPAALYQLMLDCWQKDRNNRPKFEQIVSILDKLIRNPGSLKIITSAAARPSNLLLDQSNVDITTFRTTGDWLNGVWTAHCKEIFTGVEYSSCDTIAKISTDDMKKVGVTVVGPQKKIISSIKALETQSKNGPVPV
UniProt Q15375, 28-998 limits assumed: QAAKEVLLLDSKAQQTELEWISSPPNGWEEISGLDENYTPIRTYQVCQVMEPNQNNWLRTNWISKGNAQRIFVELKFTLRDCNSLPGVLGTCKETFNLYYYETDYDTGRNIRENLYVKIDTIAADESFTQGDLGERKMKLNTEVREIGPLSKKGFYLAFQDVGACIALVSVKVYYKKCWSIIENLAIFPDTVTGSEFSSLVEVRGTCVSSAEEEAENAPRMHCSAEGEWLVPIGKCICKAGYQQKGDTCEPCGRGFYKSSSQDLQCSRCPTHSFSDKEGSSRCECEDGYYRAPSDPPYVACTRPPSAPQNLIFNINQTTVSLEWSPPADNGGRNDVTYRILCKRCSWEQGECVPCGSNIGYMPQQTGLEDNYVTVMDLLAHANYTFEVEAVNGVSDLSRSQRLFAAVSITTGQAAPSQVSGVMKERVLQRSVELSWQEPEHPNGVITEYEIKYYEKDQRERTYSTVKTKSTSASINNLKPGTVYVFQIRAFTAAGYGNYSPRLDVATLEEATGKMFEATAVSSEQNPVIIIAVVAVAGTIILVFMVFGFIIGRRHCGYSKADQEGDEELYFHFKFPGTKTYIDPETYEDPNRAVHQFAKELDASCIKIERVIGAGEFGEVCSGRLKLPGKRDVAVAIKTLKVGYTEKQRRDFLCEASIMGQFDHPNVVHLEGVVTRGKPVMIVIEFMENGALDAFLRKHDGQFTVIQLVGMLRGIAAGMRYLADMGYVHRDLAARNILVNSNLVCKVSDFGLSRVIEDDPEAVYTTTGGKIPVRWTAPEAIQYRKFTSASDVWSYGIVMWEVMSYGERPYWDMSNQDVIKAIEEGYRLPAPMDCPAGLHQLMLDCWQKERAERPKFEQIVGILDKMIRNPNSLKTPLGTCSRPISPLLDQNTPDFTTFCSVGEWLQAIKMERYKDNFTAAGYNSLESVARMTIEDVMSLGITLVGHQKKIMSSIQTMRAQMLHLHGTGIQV
UniProt P54762, 18-984 limits assumed: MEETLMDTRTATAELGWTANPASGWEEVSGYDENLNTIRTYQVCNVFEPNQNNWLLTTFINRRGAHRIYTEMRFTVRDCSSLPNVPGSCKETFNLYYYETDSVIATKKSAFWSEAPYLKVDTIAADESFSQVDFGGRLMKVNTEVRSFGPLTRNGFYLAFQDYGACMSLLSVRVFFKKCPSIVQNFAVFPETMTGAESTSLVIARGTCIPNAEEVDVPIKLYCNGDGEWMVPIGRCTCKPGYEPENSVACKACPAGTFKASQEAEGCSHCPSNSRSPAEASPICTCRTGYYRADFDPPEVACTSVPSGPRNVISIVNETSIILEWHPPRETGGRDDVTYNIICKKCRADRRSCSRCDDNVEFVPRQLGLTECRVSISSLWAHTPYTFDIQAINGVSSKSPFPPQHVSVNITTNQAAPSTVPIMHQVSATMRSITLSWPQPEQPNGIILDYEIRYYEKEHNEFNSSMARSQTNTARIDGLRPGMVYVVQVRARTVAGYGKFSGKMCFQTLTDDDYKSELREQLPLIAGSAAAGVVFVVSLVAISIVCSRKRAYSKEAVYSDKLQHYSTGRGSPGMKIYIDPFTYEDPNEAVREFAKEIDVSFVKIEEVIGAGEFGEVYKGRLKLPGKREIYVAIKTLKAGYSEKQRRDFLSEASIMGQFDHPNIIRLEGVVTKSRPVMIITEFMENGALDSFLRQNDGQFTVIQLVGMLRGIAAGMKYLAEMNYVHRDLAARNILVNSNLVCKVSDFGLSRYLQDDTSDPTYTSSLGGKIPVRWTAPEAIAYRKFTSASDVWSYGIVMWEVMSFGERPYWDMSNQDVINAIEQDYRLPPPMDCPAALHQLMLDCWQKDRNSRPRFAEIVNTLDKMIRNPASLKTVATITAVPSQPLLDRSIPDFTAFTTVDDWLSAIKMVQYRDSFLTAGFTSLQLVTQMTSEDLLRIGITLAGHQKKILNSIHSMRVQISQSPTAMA

Experiments:
[1] = target: ABL1 wt (Homo sapiens (Human), UniProt P00519); type: biochemical
[2] = target: SIK1 (Homo sapiens (Human), UniProt P57059); conditions: read-out: SIK1 IC50
[3] = target: SIK2 (Homo sapiens (Human), UniProt Q9H0K1); conditions: read-out: SIK2 IC50
[4] = target: ABL1 G250E (Homo sapiens, UniProt P00519, G250E); conditions: read-out: ABL1 G250E IC50
[5] = target: ABL1 Q252H (Homo sapiens, UniProt P00519, Q252H); conditions: read-out: ABL1 Q252H IC50
[6] = target: ABL1 Y253F (Homo sapiens, UniProt P00519, Y253F); conditions: read-out: ABL1 Y253F IC50
[7] = target: ABL1 E255K (Homo sapiens, UniProt P00519, E255K); conditions: read-out: ABL1 E255K IC50
[8] = target: ABL1 T315I (Homo sapiens, UniProt P00519, T315I); conditions: read-out: ABL1 T315I IC50
[9] = target: ABL1 F317I (Homo sapiens, UniProt P00519, F317I); conditions: read-out: ABL1 F317I IC50
[10] = target: ABL1 M351T (Homo sapiens, UniProt P00519, M351T); conditions: read-out: ABL1 M351T IC50
[11] = target: ABL1 H396P (Homo sapiens, UniProt P00519, H396P); conditions: read-out: ABL1 H396P IC50
[12] = target: SRC (GST-HIS-tag) (Homo sapiens (Human), UniProt P12931); assay: biochemical
[13] = target: FLT3 (Homo sapiens (Human), UniProt P36888); conditions: read-out: FLT3 IC50
[14] = target: SYK (Homo sapiens (Human), UniProt P43405); conditions: read-out: SYK IC50
[15] = target: KIT (Homo sapiens (Human), UniProt P10721); conditions: read-out: KIT IC50
[16] = target: RET (Homo sapiens (Human), UniProt P07949)
[17] = target: NEK11 (Homo sapiens (Human), UniProt Q8NG66)
[18] = target: BRAF (Homo sapiens (Human), UniProt P15056)
[19] = system: NIK; type: biochemical
[20] = system: RAF1; type: biochemical
[21] = system: KASUMI-1 cell line; assay: Growth inhibition (GI50) of AML cell lines; type: cell-based; conditions: Homo sapiens, Kasumi 1, read-out: GI50 against KASUMI-1 cell line
[22] = system: MV4-11 cell line; assay: Growth inhibition (GI50) of AML cell lines; type: cell-based; conditions: Homo sapiens, MV4-11, read-out: GI50 against MV4-11 cell line
[23] = humans; cited from earlier work
[24] = cited from earlier work
[25] = target: EPH-A3 (Homo sapiens (Human), UniProt P29320); assay: biochemical; conditions: read-out: EPH-A3 residual activity (%) at 1 μM
[26] = target: EPH-A7 (Homo sapiens (Human), UniProt Q15375); assay: biochemical; conditions: read-out: EPH-A7 residual activity (%) at 1 μM
[27] = target: EPH-B1 (Homo sapiens (Human), UniProt P54762); assay: biochemical; conditions: read-out: EPH-B1 residual activity (%) at 1 μM
[28] = Human plasma-protein binding
[29] = system: MC38 colorectal carcinoma tumours; assay: MC38 syngeneic mouse tumour model (Example 8.1); conditions: comparative study, 30 mg/kg QD
[30] = system: MC38 murine tumour cell line; assay: TNF-sensitised cell viability assay (CellTiter-Glo); conditions: Mus musculus, MC-38, read-out: MC38 IC50 (at 100 ng/mL rMuTNF)
[31] = system: HCT116 cells; assay: as above; conditions: Homo sapiens, HCT-116, read-out: HCT116 IC50 (at 10 ng/ml rHuTNF)
[32] = in vitro; conditions: human, microsomes
[33] = in vitro; conditions: mouse, microsomes

SMILES: Cc1nc(NCCO)cc(Nc2ncc(C(=O)Nc3c(Cl)ccnc3C)s2)n1 [Compound C11, N-(4-chloro-2-methylpyridin-3-yl)-2-((6-((2-hydroxyethyl)amino)-2-methylpyrimidin-4-yl)amino)thiazole-5-carboxamide]
- IC50 [1]: 4.43 nM
- IC50 [2]: 302 nM
- IC50 [3]: 470 nM

SMILES: Cc1nc(Nc2ncc(C(=O)Nc3c(C)cncc3C)s2)cc(N2CCN(CCO)CC2)n1 [Compound C5, N-(3,5-dimethylpyridin-4-yl)-2-((6-(4-(2-hydroxyethyl)piperazin-1-yl)-2-methylpyrimidin-4-yl)amino)thiazole-5-carboxamide]
- IC50 [1]: 28.2 nM
- IC50 [2]: 30.6 nM
- IC50 [3]: 119 nM

SMILES: Cc1nc(Nc2ncc(C(=O)Nc3c(C)cncc3Cl)s2)cc(N2CCN(CCO)CC2)n1 [Compound C4, N-(3-chloro-5-methylpyridin-4-yl)-2-((6-(4-(2-hydroxyethyl)piperazin-1-yl)-2-methylpyrimidin-4-yl)amino)thiazole-5-carboxamide]
- IC50 [1]: 17.7 nM
- IC50 [2]: 32.7 nM
- IC50 [4]: 45.6 nM
- IC50 [5]: 15.2 nM
- IC50 [6]: 11 nM
- IC50 [7]: 51.6 nM
- IC50 [8]: 23400 nM
- IC50 [9]: 189 nM
- IC50 [10]: 19.4 nM
- IC50 [11]: 13.2 nM
- IC50 [3]: 130 nM

SMILES: Cc1nc(Nc2ncc(C(=O)Nc3c(C)csc3Cl)s2)cc(N2CCN(CCO)CC2)n1 [Compound C7, N-(2-chloro-4-methylthiophen-3-yl)-2-((6-(4-(2-hydroxyethyl)piperazin-1-yl)-2-methylpyrimidin-4-yl)amino)thiazole-5-carboxamide]
- IC50 [2]: 13.4 nM

SMILES: Cc1nc(Nc2ncc(C(=O)Nc3c(C)ccnc3C)s2)cc(N2CCN(CCO)CC2)n1 [Compound C1, N-(2,4-dimethylpyridin-3-yl)-2-((6-(4-(2-hydroxyethyl)piperazin-1-yl)-2-methylpyrimidin-4-yl)amino)thiazole-5-carboxamide]
- IC50 [1]: 13 nM
- IC50 [2]: 132 nM
- IC50 [3]: 641 nM

SMILES: Cc1nc(Nc2ncc(C(=O)Nc3cccnc3C)s2)cc(N2CCN(CCO)CC2)n1 [Compound C6, 2-((6-(4-(2-hydroxyethyl)piperazin-1-yl)-2-methylpyrimidin-4-yl)amino)-N-(2-methylpyridin-3-yl)thiazole-5-carboxamide]
- IC50 [1]: 14.7 nM
- IC50 [2]: 336 nM
- IC50 [3]: 385 nM

SMILES: Cc1nc(Nc2ncc(C(=O)Nc3c(Br)ccnc3C)s2)cc(N2CCN(CCO)CC2)n1 [Compound C3, N-(4-bromo-2-methylpyridin-3-yl)-2-((6-(4-(2-hydroxyethyl)piperazin-1-yl)-2-methylpyrimidin-4-yl)amino)thiazole-5-carboxamide]
- IC50 [1]: 39.7 nM
- IC50 [12]: < 2 nM and 1.59 nM
- IC50 [2]: 571 nM
- IC50 [4]: 101 nM
- IC50 [5]: 29.7 nM
- IC50 [6]: 16.1 nM
- IC50 [7]: 111 nM
- IC50 [8]: 43800 nM
- IC50 [9]: 823 nM
- IC50 [10]: 37 nM
- IC50 [11]: 32.5 nM
- IC50 [3]: 1540 nM

SMILES: Cc1nc(Nc2ncc(C(=O)Nc3c(Cl)ccnc3C)s2)cc(N2CCN(CCO)CC2)n1 [Compound B3, N-(4-chloro-2-methylpyridin-3-yl)-2-((6-(4-(2-hydroxyethyl)piperazin-1-yl)-2-methylpyrimidin-4-yl)amino)thiazole-5-carboxamide]
- IC50 [13]: 6900 nM
- IC50 ([13]; as stated in text): 6900 nM
- IC50 [14]: 26000 nM
- IC50 ([14]; as stated in text): 26000 nM
- IC50 [15]: 40.4 nM
- RET residual activity (%) at 1 μM [16]: 98%
- NEK11 residual activity (%) at 1 μM [17]: 89%
- BRAF residual activity (%) at 1 μM [18]: 46%

SMILES: Cc1nc(Nc2ncc(C(=O)Nc3c(C)cccc3Cl)s2)cc(N2CCN(CCO)CC2)n1 [Compound A8, N-(2-chloro-6-methylphenyl)-2-((6-(4-(2-hydroxyethyl)piperazin-1-yl)-2-methylpyrimidin-4-yl)amino)thiazole-5-carboxamide, reference compound]
- NIK residual activity (%) at 1 μM [19]: 82%
- RAF1 residual activity (%) at 1 μM [20]: 14%
- GI50 [21]: 2.8 nM
- GI50 [22]: 325 nM
- overall mean terminal half-life [23]: 3 to 5 h
- severe central nervous system (CNS) haemorrhages (including fatalities) ([24]; all clinical studies): 1 % of patients
- QT prolongation ([24]; human, in vivo): up to 1 % of CML patients
- cardiac adverse reactions ([24]; human, in vivo): 5.8 % of 258 patients
- other cases of severe haemorrhage ([24]; human, in vivo): 2 % of patients
- severe fluid retention ([24]; human, in vivo): up to 10 % of patients
- remaining activity at 1 µM [25]: 0%
- remaining activity at 1 µM [26]: 88%
- remaining activity at 1 µM [27]: 0%
- Human plasma-protein binding, Percentage unbound (%) ([28]; Table 5A): 2%
- Human plasma-protein binding, Percentage unbound (%) ([28]; Table 5.1A): 2%
- average TGI [29]: 56%
- IC50 [30]: < 100 nM
- IC50 [31]: < 100 nM

SMILES: Cc1nc(Nc2ncc(C(=O)Nc3c(C)nn(C)c3C)s2)cc(N2CCN(CCO)CC2)n1 [Compound C8, 2-((6-(4-(2-hydroxyethyl)piperazin-1-yl)-2-methylpyrimidin-4-yl)amino)-N-(1,3,5-trimethyl-1H-pyrazol-4-yl)thiazole-5-carboxamide]
- IC50 [12]: 22.8 nM
- IC50 [2]: 2800 nM
- IC50 [3]: 4440 nM

SMILES: Cc1nc(Nc2ncc(C(=O)N[C@H]3CN4CCC3CC4)s2)cc(N2CCN(CCO)CC2)n1 [Compound C12, (R)-2-((6-(4-(2-hydroxyethyl)piperazin-1-yl)-2-methylpyrimidin-4-yl)amino)-N-(quinuclidine-3-yl)thiazole-5-carboxamide]
- IC50 [1]: 391 nM
- IC50 [12]: 73.7 nM
- IC50 [2]: 1710 nM
- half-life [32]: > 1.67 h
- half-life [33]: > 1.67 h
